Experimental findings from PubChem BioAssay AID368 (University of Pittsburgh Molecular Library Screening Center, 2006) are described below.

The chains behind the UniProt entries cited, without tags or fusion partners. Where a name states a change or a piece, a line headed by the entry shows the natural chain unless it says otherwise.
UniProt P30305: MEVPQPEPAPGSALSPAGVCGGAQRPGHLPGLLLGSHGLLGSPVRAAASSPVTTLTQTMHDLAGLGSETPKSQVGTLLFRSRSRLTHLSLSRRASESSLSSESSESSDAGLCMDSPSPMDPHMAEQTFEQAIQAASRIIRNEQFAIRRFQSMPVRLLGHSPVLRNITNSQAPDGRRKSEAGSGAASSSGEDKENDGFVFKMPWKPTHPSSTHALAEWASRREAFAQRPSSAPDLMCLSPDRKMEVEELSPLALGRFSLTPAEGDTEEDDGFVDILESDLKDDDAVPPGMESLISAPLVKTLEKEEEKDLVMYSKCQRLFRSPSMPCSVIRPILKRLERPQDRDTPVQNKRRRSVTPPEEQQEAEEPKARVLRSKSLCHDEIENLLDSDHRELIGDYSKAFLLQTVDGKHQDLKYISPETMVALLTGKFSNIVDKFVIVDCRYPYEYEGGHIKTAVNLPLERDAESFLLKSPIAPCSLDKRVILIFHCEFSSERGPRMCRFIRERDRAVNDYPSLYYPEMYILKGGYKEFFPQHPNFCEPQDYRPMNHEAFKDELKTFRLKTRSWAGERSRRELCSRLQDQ

Only a part is listed here, and it is no random draw. Calls of active or inactive are those of the source. Rule as the data show it: active = inhibition above about 50%; inactive = the rest.

The target of the experiment is M-phase inducer phosphatase 2 (Homo sapiens) (UniProt P30305). Briefly: inhibitors of Cdc25B phosphatase catalytic domain, primary screen, biochemical, OMFP fluorescence (AID 368). The following applies: recombinant Cdc25B, OMFP fluorescence Ex485/Em525; stronger effect = higher value;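 compounds tested at 10 µM final in the well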.
The term inhibition denotes the relative decrease from the control value, in per cent. `O=C(COc1ccccc1)OC1CN2CCC1CC2` (stereo not given): the inhibition is inactive: 0.358%.

On to `COP1(=S)c2c(C)nn(CCC#N)c2N=C(c2ccc(F)cc2)N1C` (stereo not given), for which the inhibition was inactive: -26%.

Turning to `O=C(OC1CN2CCC1CC2)C12CC3CC(CC(C3)C1)C2` (stereo not given), the inhibition was inactive: -3.87%.

In the case of `Cc1cccc(OCC(=O)OC2CN3CCC2CC3)c1` (stereo not given), the inhibition was inactive: -30.4%.

Consider `CCOP1(=S)c2c(C)nn(CCC#N)c2N=C(c2ccccc2F)N1C` (stereo not given), for which the inhibition is inactive: -2.04%.

On to `O=P(Nc1nccs1)(c1ccccc1)c1nc2ccccc2s1` (stereo not given), for which the inhibition was inactive: -1.75%.

As to `CCOP1(=S)c2c(C)nn(CCC#N)c2N=C(c2ccc(F)cc2)N1C` (stereo not given), the inhibition is inactive: -11.9%.

Consider `Cc1nn(-c2ccccc2)c2c1P(=O)(N1CCOCC1)N(C)C(c1ccccc1)=N2` (stereo not given), for which the inhibition is inactive: -9.77%.

Regarding `Cc1ccc(OCC(=O)OC2CN3CCC2CC3)cc1` (stereo not given), the inhibition was inactive: -36.7%.

Consider `O=P1(Nc2ccc(Br)cn2)COc2ccccc2OC1`, for which the inhibition is inactive: -1.01%.

In the case of `O=P1(Nc2ncccn2)COc2ccccc2OC1`, the inhibition is inactive: 3.6%.

For `Clc1n[nH]nc1-c1nn[nH][15n]1`, the inhibition was inactive: -13.5%.

In the case of `O=P1(Nc2ccccn2)COc2ccccc2OC1`, the inhibition was inactive: -3.72%.

Take `c1nnnn1CCn1cnnn1`: the inhibition was inactive: 7.01%.

On to `O=P(Nc1nccs1)(c1ccccc1)c1ccccc1`, for which the inhibition is inactive: -15.1%.

Regarding `O=C(OC1CN2CCC1CC2)c1cccc(Cl)c1` (stereo not given), the inhibition was inactive: -4.45%.

As for `COC(=O)c1cc2c(s1)N=C(c1ccccc1)N(C)P2(=O)N1CCOCC1` (stereo not given), the inhibition is inactive: -7.31%.

With `O=P1(Nc2nc3ccc(Cl)cc3s2)COc2ccccc2O1` (stereo not given), the inhibition is inactive: 3.31%.

For `Cc1c2non([O-])c-2c(C)[n+](=O)[n+]1[O-]`, the inhibition is inactive: -11.2%.

Regarding `CCc1nc2c(n1)c1c(non1O)c1c2no[n+]1[O-]`, the inhibition was inactive: 2.35%.
